The values below come from patent US20260242721A1, “A SYNTHETIC CELLULAR ADVANCED SIGNAL ADAPTER (SCASA) SYSTEM” (Danmarks Tekniske Universitet, priority 2023, published 2026).

For test [1], the target named is Aga2-HA-PAS40-(G4S)3-CD19-myc yeast surface display fusion protein (CD19.1 ECD displayed on SCASA yeast aAPCs) (synthetic construct, CD19 part modified from human). The experiment in a line: cell-based or functional assay.
Test [2] concerns the target CD19 on the human CD19+ NALM6 B cell precursor leukemia cell line (human) (UniProt P15391). The experiment in a line: cell-based or functional assay.

In test [1], “anti-CD19 CAR with fully-human scFv, CD8α hinge and transmembrane domains, CD28 costimulatory domain and CD3ζ activation domain (Hu19-CD828Z) (receptor)” gave a % CD69+ of CAR T cells after 20 hrs co-cultivation with yeast PPGK1-CD19, 0.2× target cells of 63.6%; a % CD69+ of CAR T cells after 20 hrs co-cultivation with yeast PPGK1-CD19, 1.0× target cells of 70%; a % CD69+ of CAR T cells after 20 hrs co-cultivation with yeast PPGK1-CD19, 5.0× target cells of 84.7%; a CD69 expression intensity of CAR T cells relative to CTRL T cell monocultures, yeast PPGK1-CD19, 0.2× target cells of 13.3 fold. Also, in test [1], the CD69 expression intensity of CAR T cells relative to CTRL T cell monocultures, yeast PPGK1-CD19, 1.0× target cells was 20.4 fold and the CD69 expression intensity of CAR T cells relative to CTRL T cell monocultures, yeast PPGK1-CD19, 5.0× target cells was determined as 59.2 fold. In test [2], the % CD69+ of CAR T cells, NALM6, highest end over the target cell ratios amounted to 91.9%; the % CD69+ of CAR T cells, NALM6, lowest end over the target cell ratios was 50.3%; the CD69 expression intensity of CAR T cells relative to CTRL T cell monocultures, NALM6, 5.0× target cells was 44.6 fold; the CD69 expression intensity of CAR T cells, NALM6, lowest end over the target cell ratios came to 6.1 fold.
